Measured values published in patent US20260384421A1, “NOVEL COMPOUNDS THAT CAN BE USED AS THERAPEUTIC AGENTS” (published 2026).
Where two headings read alike, the source gives them in different places.

Experiments:
SW-1353 cells = assay: alamarBlue proliferation assay with SW-1353 cells (glucose-free L-15 medium); details: read-out: Activity on SW-1353: IC50, Leibovitz's L-15 medium, 10% FBS, 0% CO2
NCI-H460 cells = assay: alamarBlue proliferation assay with NCI-H460 cells; details: read-out: Activity on NCI-H460: IC50, RPMI 1640 medium, 10% FBS
A-549 cells = assay: alamarBlue proliferation assay with A-549 cells; details: read-out: Activity on A-549: IC50, DMEM medium, 10% FBS
SW-948 cells = assay: alamarBlue proliferation assay with SW-948 cells (glucose-free L-15 medium); details: read-out: Activity on SW-948: IC50, Leibovitz's L-15 medium, 10% FBS, 0% CO2
MDA-MB-231 cells = assay: alamarBlue proliferation assay with MDA-MB-231 cells (glucose-free Leibovitz's L-15 medium)
PANC-1 cells = assay: alamarBlue proliferation assay with PANC-1 cells; details: read-out: Activity on PANC-1: IC50, DMEM medium, 10% FBS
From the text: (§1) These hyperproliferative processes can be benign or malignant and include hyperplasia, neoplasia, cancer and pre-cancerous lesions, and metastases. The antiproliferative activities of compounds falling under general formula (I) were investigated on human primary epidermal keratinocytes (HPEK) and human, murine and canine cell lines derived from hyperproliferative tissue or different cancer types, including MDA-MB-231, ZR-75-30, HCC-1395, HCC-1937, and T-47D all originating from cancer of the breast, JURKAT, RPMI-8402, LOUCY, TANQUE, REC-1, HL-60, NB-4 all originating from different types of blood cancer including lymphoma and leukemia of T-cells, B-cells and myeloid cells, TT originating from cancer of the neuroendocrine system, HeLa originating from cancer of the cervix, 23132/87, SW-948, and HCT-116 all originating from cancer of the gastrointestinal tract including stomach and colon, BHY originating from cancer of the mucosal epithelium, A-431 originating from cancer of the skin, HEP-G2 originating from cancer of the liver, NCI-H460 and A-549 both originating from cancer of the lung, PANC-1 originating from cancer of the pancreas, U-87 MG originating from cancer of the brain, A-375 and RVH-421 both originating from cancer of melanocytes, SW-1353 originating from cancer of bone-derived chondrocytes, C2C12 a mouse cell line originating from hyperproliferative muscle progenitor cells, LL/2 a mouse cell line originating from cancer of the lung, CF21.T a dog cell line originating from cancer of the connective tissue. To this end, according cells were seeded into 96-well plates (CORNING #3598) suitable for fluorescence assays at following initial cell numbers: 1000 cells per well for HPEK; 3000 cells per well for MDA-MB-231, 8000 cells per well for ZR-75-30, 1500 cells per well for HCC-1395, 1500 cells per well for HCC-1937, 3000 cells per well for T-47D, 1500 cells per well for JURKAT, 5000 cells per well for RPMI-8402, 9000 cells per well for LOUCY, 1500 cells per well for TANQUE, 9000 cells per well for REC-1, 1000 cells per well for HL-60, 1000 cells per well for NB-4, 9000 cells per well for TT, 2000 cells per well for HeLa, 2000 cells per well for 23132/87, 9000 cells per well for SW-948, 700 cells per well for HCT-116, 1500 cells per well for BHY, 700 cells per well for A-431, 1500 cells per well for HEP-G2, 500 cells per well for NCI-H460, 1000 cells per well for A-549, 1500 cells per well for PANC-1, 2500 cells per well for U-87 MG, 700 cells per well for A-375, 1500 cells per well for RVH-421, 2000 cells per well for SW-1353, 500 cells per well for C2C12, 500 cells per well for LL/2, and 3000 cells per well for CF21.T. In a volume of 90 μL per well of culture medium the cells were treated with compounds at indicated final concentrations by adding 10 μL per well of 10× compound working solutions from 1:100 pre-diluted 1000× compound DMSO stock-solutions in H2O (Water For Injection, WFI, Fisher Scientific, Gibco™ #A12873) or with the empty carrier DMSO (AppliChem, #A3672) at 0.1% v/v as control yielding a final volume of 100 μL per well. At day 5 after starting the treatments the cells were subjected to the alamarBlue® Proliferation Assay (Bio-Rad Serotec GmbH, BUF012B) according to the protocol of the manufacturer. The readout was taken with a multi-well plate-reader (Tecan Spark®) in the fluorescence mode with applying a filter for excitation at 560 nm (band width 10 nm) and for emission at 590 nm (band width 10 nm). Treatment for maximum proliferation inhibition with the commercial cytotoxic compound (S)-(+)-camptothecin (Fluorochem #M01564) at a concentration of 10 μM was included on each plate for assay quality control. Some of the test compounds of the present invention may have been obtained and applied as their salt forms.
(§2) The assays were performed in duplicate or more replicates of independent single experiments each containing a three- to six-fold replicate for every condition. […]

HPEKp cells = assay: proliferation assay with human epidermal keratinocyte progenitors (HPEKp), selectivity versus MDA-MB-231
RVH-421 cells = assay: alamarBlue proliferation assay with RVH-421 cells (glucose-free L-15 medium); details: read-out: Activity on RVH-421: IC50, Leibovitz's L-15 medium, 10% FBS, 0% CO2
HL-60 cells = assay: alamarBlue proliferation assay with HL-60 cells; details: read-out: Activity on HL-60: IC50, RPMI 1640 medium, 10% FBS
CF21.T cells = assay: alamarBlue proliferation assay with CF21.T cells; details: read-out: Activity on CF21.T: IC50; CF21.T canine cells, DMEM medium, 10% FBS
From the text: as §1, §2

LL/2 cells = assay: alamarBlue proliferation assay with LL/2 cells; details: read-out: Activity on LL/2: IC50; LL/2 murine Lewis lung carcinoma cells, DMEM medium, 10% FBS
A-375 cells = assay: alamarBlue proliferation assay with A-375 cells; details: read-out: Activity on A-375: IC50, DMEM medium, 10% FBS
[1] = test system: mitochondrial transmembrane potential Δψm in A-549 cells; assay: mitochondrial activity assay (TMRE staining, mitochondrial transmembrane potential) on A-549 cells; details: A-549 cells, compounds at 10 μM, 2 h 40 min, TMRE staining, relative to DMSO = 1.0
HCT-116 cells = assay: alamarBlue proliferation assay with HCT-116 cells; details: read-out: Activity on HCT-116: IC50, McCoy's 5A medium, 10% FBS
BHY cells = assay: alamarBlue proliferation assay with BHY cells; details: read-out: Activity on BHY: IC50, DMEM medium, 10% FBS
T-47D cells = assay: alamarBlue proliferation assay with T-47D cells; details: read-out: Activity on T-47D (IC50), day 5
From the text: as §1, §2

NB-4 cells = assay: alamarBlue proliferation assay with NB-4 cells; details: read-out: Activity on NB-4: IC50, RPMI 1640 medium, 10% FBS
TANQUE cells = assay: alamarBlue proliferation assay with TANQUE cells; details: read-out: Activity on TANOUE: IC50, RPMI 1640 medium, 10% FBS
A-431 cells = assay: alamarBlue proliferation assay with A-431 cells; details: read-out: Activity on A-431: IC50, DMEM medium, 10% FBS
HEP-G2 cells = assay: alamarBlue proliferation assay with HEP-G2 cells; details: read-out: Activity on HEP-G2: IC50, RPMI 1640 medium, 10% FBS
U-87 MG cells = assay: alamarBlue proliferation assay with U-87 MG cells; details: read-out: Activity on U-87MG: IC50, EMEM medium, 10% FBS
From the text: as §1, §2

C2C12 cells = assay: alamarBlue proliferation assay with C2C12 cells; details: read-out: Activity on C2C12: IC50; C2C12 murine myoblast cells, RPMI 1640 medium, 10% FBS
[2] = read-out: Activity (MDA): antiproliferative activity on MDA-MB-231 cells, IC50 category, MDA-MB-231 cells cultivated in glucose-free Leibovitz's L-15 medium
[3] = read-out: Activity on MDA-MB-231 (IC50), glucose-free Leibovitz's L-15, 10% FBS, day 5, alamarBlue
[4] = read-out: Activity (HPEK): antiproliferative activity on HPEK cells, IC50 category, HPEK cells cultivated in CnT-Prime medium
[5] = read-out: Activity (MDA), MDA-MB-231 cells, antiproliferative activity, class by IC50
[6] = read-out: Activity (HPEK), HPEK cells (HPEKp), antiproliferative activity, class by IC50

| Compound | IC50 (SW-1353 cells) | IC50 (A-549 cells) | IC50 (MDA-MB-231 cells; [3]) | IC50 (PANC-1 cells) | IC50 (CF21.T cells) | IC50 (LL/2 cells) | IC50 (A-375 cells) | IC50 (HCT-116 cells) | IC50 (BHY cells) | IC50 (T-47D cells) | IC50 (NB-4 cells) | IC50 (TANQUE cells) | IC50 (MDA-MB-231 cells; [5]) | IC50 (HPEKp cells; [6]) | other results |
| --- | --- | --- | --- | --- | --- | --- | --- | --- | --- | --- | --- | --- | --- | --- | --- |
| O=C(c1ccc(Oc2ccc(C3CCC4(CC3)OCCO4)cc2CO)cc1)N1CCN(Cc2nccs2)CC1 | ≤ 1 µM | ≤ 1 µM | ≤ 1 µM | ≤ 5 µM | – | – | – | – | – | – | – | – | – | – | IC50 (NCI-H460 cells): ≤ 5 µM; IC50 (SW-948 cells): ≤ 5 µM; IC50 (MDA-MB-231 cells; [2]): < 1 µM; IC50 (HPEKp cells; [4]): < 10 µM; IC50 (RVH-421 cells): ≤ 1 µM; IC50 (HL-60 cells): ≤ 5 µM |
| O=Cc1cc(C2CCC3(CC2)SCCS3)ccc1Oc1ccc(C(=O)N2CCN(Cc3ccc(Cl)cc3)CC2)nc1 | – | ≤ 0.2 µM | ≤ 0.2 µM | – | ≤ 5 µM | ≤ 1 µM | ≤ 0.2 µM | ≤ 0.2 µM | ≤ 0.2 µM | ≤ 5 µM | ≤ 0.2 µM | ≤ 0.2 µM | – | – | Activity: relative mitochondrial transmembrane potential Δψm [1]: Δψm ≤0.7 |
| O=C(c1ccc(Oc2ccc(C3CCC4(CC3)SCCS4)cc2CO)cc1)N1CCN(Cc2ccc(Cl)cc2)CC1 | – | ≤ 0.2 µM | ≤ 0.2 µM | – | ≤ 5 µM | ≤ 0.2 µM | ≤ 0.2 µM | ≤ 0.2 µM | ≤ 0.2 µM | ≤ 5 µM | ≤ 0.2 µM | ≤ 0.2 µM | – | – | IC50 (A-431 cells): ≤ 0.2 µM |
| CC1(C)COC2(CCC(c3ccc(Oc4ccc(C(=O)N5CCN(Cc6ccc(Cl)cc6)CC5)cc4)c(C=O)c3)CC2)OC1 | – | ≤ 0.2 µM | ≤ 0.2 µM | – | ≤ 5 µM | ≤ 1 µM | ≤ 0.2 µM | ≤ 0.2 µM | ≤ 0.2 µM | ≤ 5 µM | ≤ 0.2 µM | ≤ 0.2 µM | – | – | Activity: relative mitochondrial transmembrane potential Δψm [1]: Δψm ≤0.7 |
| COC1CCC(c2ccc(Oc3ccc(C(=O)N4CCN(Cc5ccc(Cl)cn5)CC4)nc3)c(CO)c2)CC1 (stereo not drawn) | – | ≤ 0.2 µM | ≤ 0.2 µM | – | ≤ 1 µM | ≤ 1 µM | – | ≤ 0.2 µM | ≤ 0.2 µM | ≤ 5 µM | ≤ 0.2 µM | ≤ 0.2 µM | < 1 µM | < 10 µM | IC50 (HEP-G2 cells): ≤ 0.2 µM |
| COC1CCC(c2ccc(Oc3ccc(C(=O)N4CCN(Cc5ccccc5)CC4)cc3)c(CO)c2)CC1 (stereo not drawn) | ≤ 0.2 µM | – | ≤ 0.2 µM | ≤ 5 µM | – | ≤ 5 µM | – | ≤ 0.2 µM | ≤ 0.2 µM | – | ≤ 0.2 µM | ≤ 0.2 µM | < 1 µM | < 10 µM | IC50 (NCI-H460 cells): ≤ 0.2 µM |
| O=C(c1ccc(Oc2ccc(C3CCC4(CC3)OCCO4)cc2CO)cc1)N1CC2CN(Cc3ccccc3)CC2C1 (stereo not drawn) | ≤ 1 µM | ≤ 5 µM | ≤ 1 µM | ≤ 5 µM | – | – | – | – | – | – | – | – | < 1 µM | < 10 µM | IC50 (U-87 MG cells): ≤ 20 µM |
| O=C(c1ccc(Oc2ccc(C3CCC4(CC3)OCCO4)cc2CO)cc1)N1CCN(Cc2cccc(Cl)c2)CC1 | ≤ 0.2 µM | ≤ 5 µM | ≤ 0.2 µM | ≤ 20 µM | – | – | – | – | – | – | – | – | – | – | IC50 (MDA-MB-231 cells; [2]): < 1 µM; IC50 (C2C12 cells): ≤ 5 µM; IC50 (HPEKp cells; [4]): < 10 µM |
| C#CCOc1ccc(CN2CCN(C(=O)c3ccc(Oc4ccc(C5CCC6(CC5)N=N6)cc4CO)cc3)CC2)cc1 | ≤ 0.2 µM | ≤ 0.2 µM | ≤ 0.2 µM | ≤ 20 µM | – | – | – | – | – | – | – | – | – | – | IC50 (U-87 MG cells): ≤ 20 µM; IC50 (MDA-MB-231 cells; [2]): < 1 µM; IC50 (HPEKp cells; [4]): < 5 µM |
| COc1ccc(CN2CCN(C(=O)c3ccc(Oc4ccc(C5CCC6(CC5)SCCS6)cc4C=O)cc3)CC2)cc1 | – | ≤ 0.2 µM | ≤ 0.2 µM | – | ≤ 5 µM | ≤ 1 µM | ≤ 0.2 µM | ≤ 0.2 µM | ≤ 0.2 µM | ≤ 5 µM | ≤ 0.2 µM | ≤ 0.2 µM | – | – | – |
| O=C(c1ccc(Oc2ccc(C3CCC4(CC3)OCCO4)cc2CO)cc1)N1CCN(Cc2ccc(Cl)nc2)CC1 | ≤ 0.2 µM | ≤ 0.2 µM | ≤ 0.2 µM | ≤ 5 µM | – | ≤ 1 µM | – | ≤ 0.2 µM | ≤ 0.2 µM | – | ≤ 0.2 µM | ≤ 0.2 µM | < 1 µM | < 10 µM | IC50 (NCI-H460 cells): ≤ 0.2 µM |
| COc1ccc(CN2CCN(C(=O)c3ccc(Oc4ccc(C5CCC6(CC5)SCCS6)cc4C=O)cn3)CC2)cc1 | – | ≤ 0.2 µM | ≤ 0.2 µM | – | ≤ 5 µM | ≤ 1 µM | ≤ 0.2 µM | ≤ 0.2 µM | ≤ 0.2 µM | ≤ 5 µM | ≤ 0.2 µM | ≤ 0.2 µM | – | – | Activity: relative mitochondrial transmembrane potential Δψm [1]: Δψm ≤0.7 |
